Data from US9447029B2, “Fluorinated arylalkylaminocarboxamide derivatives” (NEWRON PHARMACEUTICALS S.P.A., priority 2011, dated 2016).
Counter-ions that a name gives are not always drawn. Like-named read-outs stand apart in the source and are kept apart here.

Test system: hindlimb tonic extensor component of seizures
Details: 15 minutes before testing, mice
From the text: The maximal electroshock test (MES) is used commonly in the screening of anti-epileptic drugs in rodent models.

Structure (SMILES) | 50% Protection (po) | 50% Protection (iv)
CCCCOc1cccc(C(F)(F)CNCC(=O)N(C)C)c1 [Example 1-1, 2-[2,2-Difluoro-2-(3-butoxyphenyl)-ethylamino]-N,N-dimethyl-acetamide, hydrochloride] | (9.8 mg/kg, po) | –
CCCCOc1cccc(C(F)CNCC(=O)N(C)C)c1 (centres unmarked) [Example 4-1, 2-[2-Fluoro-2-(3-butoxyphenyl)-ethylamino]-N,N-dimethyl-acetamide, hydrochloride] | – | (4.0 mg/kg, iv)
